Only a part is listed here, and it is no random draw. Some tests of the compounds listed are not included; inactive here does not mean inactive elsewhere. The source made the active and inactive calls.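 Rule for the calls: active = plate-corrected calcium response at least 3 library SD above typical, normal starting fluorescence, not activating the receptor alone; inactive = the rest.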

By UniProt entry, the sequences of proteins in these tests, tags left out.
UniProt Q96LB2, whole entry: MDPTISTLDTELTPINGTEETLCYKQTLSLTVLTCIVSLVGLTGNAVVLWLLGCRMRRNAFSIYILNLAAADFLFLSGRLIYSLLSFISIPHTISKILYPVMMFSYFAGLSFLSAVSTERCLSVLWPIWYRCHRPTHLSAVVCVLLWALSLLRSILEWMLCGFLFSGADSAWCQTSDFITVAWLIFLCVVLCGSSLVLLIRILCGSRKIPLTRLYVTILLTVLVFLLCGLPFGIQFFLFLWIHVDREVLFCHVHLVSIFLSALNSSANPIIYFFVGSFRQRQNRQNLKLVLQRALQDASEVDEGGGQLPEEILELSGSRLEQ

The target of this experiment is Mas-related G-protein coupled receptor member X1 (Homo sapiens) (UniProt Q96LB2). Briefly: positive allosteric modulators of MrgX1, primary screen, HEK293 cells, Fluo-4 calcium flux (AID 588675).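 Note: compound read alongside a low EC10 to EC30 dose of BAM8-22 agonist.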 The note with it: MrgX1-HEK293, Fluo-4 calcium flux, FDSS; at 10 µM. Background: Calcium assays in cells follow changes in intracellular calcium, usually with a dye or a luminescent sensor.
For `C=CCN1CCN(CCOC(=O)C(O)(c2ccccc2)c2ccccc2)CC1`, the outcome was inactive.

Take `O=C(NCC1(N2CCCCC2)CCCCC1)c1cc(F)c(F)cc1Cl`: the result was inactive.

Turning to `COc1ccc(C(=O)NCC2(N(C)C)CCCCC2)cc1`, the result was inactive.

Turning to `CCN1CCCC(OC(=O)C2(O)c3ccccc3C=Cc3ccccc32)C1` (centres undefined), the result was inactive.

As for `Cc1cc(C(=O)NCC2(N3CCCCC3)CCCCC2)ccc1[N+](=O)[O-]`, the result was inactive.

As to `O=C(NCC1(N2CCCCC2)CCCCC1)c1cccc(Br)c1`, the result was inactive.

`Cc1ccccc1C(=O)NCC1(N2CCCCC2)CCCCC1`: the result was inactive.

With `CN(C)c1ccc(C(=O)NCC2(N(C)C)CCCCC2)cc1`, the outcome was inactive.

Regarding `CN(C)C1CCCC1OC(=O)C(O)(c1ccccc1)c1ccccc1` (centres undefined), the result was inactive.

`CCN(CC)CC(C)C(C)OC(=O)C(O)(c1ccccc1)c1ccccc1` (centres undefined): the outcome was inactive.

On to `COc1cc(SC)ccc1C(=O)NCC1(N(C)C)CCCCC1`, for which the outcome was inactive.

On to `CC(C)N1C(=O)CC2(CCN(CCOC(=O)C(O)(c3ccccc3)c3ccccc3)CC2)C1=O`, for which the result was inactive.

With `Cc1ccc(C(=O)NCC2(N3CCCCC3)CCCCC2)cc1`, the outcome was inactive.

In the case of `O=C(NCC1(N2CCCCC2)CCCCC1)c1cc([N+](=O)[O-])ccc1Cl`, the result was inactive.

`CN1[C@@H]2CC[C@H]1CC(OC(=O)C(O)(c1ccccc1)c1ccccc1)C2` (some centres undefined): the outcome was inactive.

In the case of `COc1ccc(Br)c(C(=O)NCC2(N3CCCCC3)CCCCC2)c1`, the result was inactive.

Turning to `CC(C)Oc1ccc(C(=O)NCC2(N(C)C)CCCCC2)cc1`, the result was inactive.

As for `CN(C)c1cccc(C(=O)NCC2(N(C)C)CCCCC2)c1`, the outcome was inactive.

On to `O=C(OC1CN2CCC1CC2)C(CO)(c1ccccc1)c1ccccc1` (centres undefined), for which the outcome was inactive.

Consider `COc1cccc(C(=O)NCC2(N3CCCCC3)CCCCC2)c1`, for which the outcome was inactive.

Take `COc1ccc(Cl)cc1C(=O)NCC1(N(C)C)CCCCC1`: the result was inactive.

In the case of `O=C(NCC1(N2CCCCC2)CCCCC1)c1cccc(Cl)c1`, the result was inactive.

In the case of `CN(C)C1(CNC(=O)c2ccc(Br)cc2)CCCCC1`, the result was inactive.

Consider `COc1cc(C(=O)NCC2(N(C)C)CCCCC2)c([N+](=O)[O-])cc1OC`, for which the outcome was inactive.
